In published antibiotic growth screens (doi:10.1038/s41589-023-01349-8):
Some of the results follow.

The molecules below were run on A. baumannii ATCC 17978 (assay: relative growth (fraction of control); higher = less inhibition). Settings: 50 µM.

SMILES | relative growth
CN(C)c1cnccn1.O=S(=O)(O)O | 1.02
Cc1nc2ccccn2c(=O)c1CCN1CCC(C(=O)c2ccc(F)cc2)CC1 | 0.947
CSc1nc2cc(Cl)c(Oc3cccc(Cl)c3Cl)cc2[nH]1 | 0.894
O=C(CCNNC(=O)c1ccncc1)NCc1ccccc1 | 1.07
COCC(=O)N1C[C@H](C)[C@H](OC)CN(C)C(=O)c2ccc(NC(=O)c3cc(C)on3)cc2OC[C@@H]1C | 1.02
C[C@H]1CN([C@@H](C)CO)S(=O)(=O)c2ccc(C3=CCCCC3)cc2O[C@@H]1CN(C)C(=O)C1CCOCC1 | 0.94
O=C(C[C@@H]1CC[C@@H](NC(=O)CN2CCOCC2)[C@H](CO)O1)NC1CCC1 | 0.961
O=C(CN1CCOCC1)N[C@H]1CC[C@@H](CCn2cc(C3CC3)nn2)O[C@@H]1CO | 1.04
OCCN1CCN(c2ncnc3c2ncn3[C@H]2CN(Cc3cccc(C(F)(F)F)c3)C[C@@H](CO)O2)CC1 | 0.918
CN(C)CCCNC(=O)C[C@H]1C=C[C@@H](NC(=O)Cc2cccnc2)[C@H](CO)O1 | 0.991
C/C=C/c1ccc(OC)cc1 | 1.18
CN(C)CCCCNC(=O)[C@H]1C[C@H]2C(=O)N[C@@H](CCCC[N+](C)(C)C)C(=O)N2[C@H]1c1ccc(O)cc1 | 1
COc1ccccc1C#Cc1ccc2c(c1)O[C@H](CN(C)Cc1cccnc1)[C@@H](C)CN([C@H](C)CO)S2(=O)=O | 1.02
O[C@H]1[C@H](O)[C@@H](O)[C@H](O)[C@@H](O)[C@H]1O | 0.98
CCN1CCN(C(=O)NC(C(=O)NC2C(=O)N3C(C(=O)O)=C(CSc4nnnn4C)CSC23)c2ccc(O)cc2)C(=O)C1=O (configuration not stated) | 0.164
N=C(N)NCCCCN.O=S(=O)(O)O | 1.01
Cc1cc(C)n(C(N)=S)n1 | 0.965
COc1ccccc1S(=O)(=O)N[C@@H]1C=C[C@H](CC(=O)N2CCN(C)CC2)O[C@@H]1CO | 1.24
Cc1ccc(Cl)c(Nc2ccccc2C(=O)[O-])c1Cl.[Na+] | 0.798
CCCCc1ccc(CC(=O)O)cc1 | 1.03
CN(C)CCCNC(=O)C[C@H]1CC[C@H](NS(=O)(=O)c2ccccc2)[C@H](CO)O1 | 1.01

SMILES | relative growth
CC(C)(C)OC(=O)C[C@@H]1CC=CC[C@H](CC(=O)NCCO)C(=O)NCCOC1=O | 1.07
CC(C)NC(=O)N(C)C[C@H]1Oc2ncc(-c3ccc(C(=O)N(C)C)cc3)cc2C(=O)N([C@H](C)CO)C[C@@H]1C | 1.03
CO[C@H]1CN(C)C(=O)c2cc(NS(C)(=O)=O)ccc2OC[C@@H](C)N(C(=O)c2ccc3c(c2)OCO3)C[C@H]1C | 1.08
CC(=O)N1CCN(CC(N)=S)CC1 | 1.06
COc1ccccc1CN1C(=O)c2ccccc2[C@](Cc2ccccc2I)(C(=O)O)[C@@H]1c1ccc(CO)cc1 | 1.17
COC(=O)/C=C/C(C)=C/C=C/C(C)=C/C=C/C=C(C)/C=C/C=C(C)/C=C/C(=O)O | 0.985
C=CCOC(=O)[C@H]1[C@@H]2C(=O)O[C@@H](c3ccccc3)[C@@H](c3ccccc3)N2[C@@H](c2ccc(OCCOC(=O)[C@@H]3C[C@@H]4C(=O)N[C@@H](CCCC[N+](C)(C)C)C(=O)N4[C@@H]3c3ccc(O)cc3)cc2)[C@]12C(=O)Nc1ccccc12 | 1.3
CS(=O)(=O)N(CC(=O)O)Cc1ccccc1 | 0.961
C=CCNC(=O)[C@H]1[C@@H]2C(=O)O[C@@H](c3ccccc3)[C@@H](c3ccccc3)N2[C@@H](c2ccc(OCCO)cc2)[C@]12C(=O)N(C(=O)OCCOC)c1ccc(C#CC3(O)CCCCCC3)cc12 | 0.998
Cc1cc(/C=N/O)[nH]c(=O)n1 | 0.998
COc1ccccc1-c1ccc2c(c1)O[C@H](CN(C)S(=O)(=O)c1ccccc1)[C@@H](C)CN([C@@H](C)CO)S2(=O)=O | 1
CN1C(=O)[C@H]2[C@H](C1=O)[C@H]1C=C(c3ccc(CO)cc3)[C@@H]2[C@H](c2cccs2)N1Cc1cccc(OC(F)(F)F)c1 | 0.91
C[C@]12C=CC(=O)C=C1CCC1C2[C@@H](O)C[C@@]2(C)C1CC[C@]2(O)C(=O)CO (some centres not stated) | 1
CC(=O)O[C@H]1C(=O)[C@@]2(C)[C@H]([C@H](OC(=O)c3ccccc3)[C@]3(O)C[C@H](OC(=O)[C@H](O)[C@@H](NC(=O)c4ccccc4)c4ccccc4)C(C)=C1C3(C)C)[C@]1(OC(C)=O)CO[C@@H]1C[C@@H]2O | 0.951
COc1cccc(OC)c1OCCNCCO | 1.01
O=C(C[C@@H]1C=C[C@@H](NS(=O)(=O)c2ccc(F)cc2)[C@@H](CO)O1)NCc1ccc(Cl)c(Cl)c1 | 0.829
Cc1ccc(CSc2nnc(CCN)o2)cc1 | 0.98
COC(=O)COc1nsnc1N1CCOCC1 | 1.1
O=C(NCCCN1CCCC1=O)c1cccnc1 | 1.09
CCCCCCCCc1cc(C)c(OC)c(CC)c1.CCCCCCCCc1ccc(OC)c(C)c1.CCCCCCCCc1ccc(OC)c(C)c1.CCOCCOCCOCCOCCOCCOCCOCCOCCOCCO | 1.1
O=C1O[C@@H](c2ccccc2)[C@@H](c2ccccc2)N2[C@@H](c3ccc(OCCO)cc3)[C@]3(C(=O)Nc4ccc(C#CC5=CCCCC5)cc43)[C@@H](C(=O)N3CCN(c4ncccn4)CC3)[C@H]12 | 0.993

SMILES | relative growth
CCCCCC(=O)O[C@]1(C(C)=O)CC[C@H]2[C@@H]3CCC4=CC(=O)CC[C@]4(C)[C@H]3CC[C@@]21C | 1.5
Cn1cnc(S(=O)(=O)N2C[C@H](O)COC[C@H]3O[C@@H](CC(=O)N4CCN(c5ccccc5)CC4)CC[C@@H]32)c1 | 0.967
O=C(C[C@H]1CC[C@H](NS(=O)(=O)c2ccccc2F)[C@@H](CO)O1)NCCCN1CCOCC1 | 1.06
O=C(O[C@@H]1Cc2c(O)cc(O)cc2O[C@@H]1c1ccc(O)c(O)c1)c1cc(O)c(O)c(O)c1 | 0.889
Cc1ccc(S(=O)(=O)N[C@@H](Cc2ccccc2)C(=O)NCCCn2cc(C(=O)NO)nn2)cc1 | 1.21
O=C(C[C@@H]1CC[C@@H]2[C@H](COC[C@@H](O)CN2Cc2cc(F)ccc2F)O1)N[C@@H]1CCN(Cc2ccccc2)C1 | 1.07
Cl.NC(=O)CC[C@H](N)C(=O)O | 1.08
C[C@@H]1CN([C@@H](C)CO)C(=O)c2cccc(NC(=O)Nc3cccc4ccccc34)c2O[C@H]1CN(C)S(=O)(=O)c1ccc2ncsc2c1 | 1.01
Cc1cc(C2(c3cc(C)c(N)c(C)c3)CCCCC2)cc(C)c1N | 0.849
O=C(O)C1CCN(c2ncccn2)CC1 | 0.921
CC(C)C[C@@H]1NC(=O)[C@H]2C[C@@H](C(=O)NCCCCCC[N+](C)(C)C)[C@@H](c3cccc(OCCO)c3)N2C1=O | 0.772
Cc1[nH]c(=O)[nH]c(=O)c1S(=O)(=O)N1CCC[C@H](C(=O)NCc2ccc3c(c2)OCO3)C1 | 0.919
CC(=O)Nn1cc(C(=O)O)c2ccccc2c1=O | 0.901
NC(=O)CCN1CCn2c1nc1ccccc12 | 1.14
Cc1coc2c1C(=O)C(=O)c1c-2ccc2c1CCCC2(C)C | 1.09
CC(C)c1c(O)ccc2c1CCC1C(C)(C)C(=O)CC[C@]21C (some centres not stated) | 0.978
C=C1C=[N+]([O-])N(c2ccc(C(=O)O)cc2)N1 | 0.962
C1=C(c2ccccc2)CC(c2ccccc2)=NN=C1c1ccccc1 | 1.06
O=C(NCCN1CCOCC1)[C@]1(CCS(=O)(=O)c2ccccc2)N=C(c2ccc(OCCCO)cc2)O[C@@H]1c1ccccc1 | 0.803
COCC(=O)Nc1ccc2c(c1)OC[C@@H](C)N(Cc1ccccc1OC)C[C@H](C)[C@H](OC)CN(C)C2=O | 0.865
COc1ccc(S(=O)(=O)N(C)C[C@H]2Oc3c(NC(=O)Nc4cccc5ccccc45)cccc3C(=O)N([C@H](C)CO)C[C@@H]2C)cc1 | 0.96

SMILES | relative growth
c1ccc(NC2CCCCC2)nc1 | 0.921
Nc1nc(=O)[nH]cc1NC(=O)c1ccccc1 | 1.02
C[C@@H]1O[C@@H](OC[C@H]2O[C@@H](Oc3c(-c4ccc(OCCO)c(OCCO)c4)oc4cc(OCCO)cc(O)c4c3=O)[C@H](O)[C@@H](O)[C@@H]2O)[C@H](O)[C@H](O)[C@H]1O | 1.15
CC(=O)Oc1cc(C(C)C)c(OCCN(C)C)cc1C.Cl | 0.907
CCc1c(C)c2cc3c(-c4ccccc4)coc3cc2oc1=O | 1.23
CCN(CC)C(=O)/C(C#N)=C/c1cc(O)c(O)c([N+](=O)[O-])c1 | 0.884
O=c1cc(-c2cccc(O)c2)oc2ccc(O)cc12 | 0.897
CCCC#Cc1ccc2c(c1)O[C@@H](CN(C)Cc1ccc3c(c1)OCO3)[C@H](C)CN([C@@H](C)CO)S2(=O)=O | 1.14
O=C(CN1CCOCC1)NCC[C@@H]1CC[C@H](NC(=O)c2ccccc2F)[C@H](CO)O1 | 0.841
C[C@@H](NC(=O)C[C@H]1CC[C@@H](NC(=O)CN2CCOCC2)[C@H](CO)O1)c1ccccc1 | 1.13
COc1ccc(-c2noc(CSc3nc4sc(C)c(C)c4c(=O)n3-c3ccccc3)n2)cc1OC | 0.91
O=C(N[C@@H]1CC[C@H](CC(=O)N2CCOCC2)O[C@@H]1CO)c1ccccn1 | 1.06
C[C@@H]1CN([C@H](C)CO)S(=O)(=O)c2ccc(C#CC(C)(C)O)cc2O[C@@H]1CN(C)Cc1ccc(F)cc1 | 0.801
COc1ccc([Si](C)(C)[C@@H]2[C@@H](CCO)O[C@]3(C(=O)N(Cc4cccc(N5C(=O)c6cccc7cccc5c67)c4)c4ccccc43)[C@H]2C)cc1 | 1.45
C[C@@]1(C2CC2)Cc2cnnn2CCN1 | 0.979
CC(C)[C@H]1CC[C@@H](C)C[C@@H]1NC(=O)c1cccc2ccccc12 | 1.21
O=C(C[C@@H]1CC[C@H](NC(=O)Cc2ccccn2)[C@H](CO)O1)NCCCN1CCOCC1 | 1.15
CC1=NCCC2c3ccc(O)cc3NC12 (configuration not stated) | 1.19
C[C@@H]1CN([C@H](C)CO)C(=O)c2ccccc2-c2ccccc2CO[C@@H]1CN(C)S(=O)(=O)c1ccc(C(F)(F)F)cc1 | 0.898
